AlphaSeq binding of Ab-14 light chain variants to a spike HR2 peptide

The measurements come from Engelhart et al. 2022 (doi:10.1038/s41597-022-01779-4) through the FLAb antibody collection.

Target: peptide PDVDLGDISGINAS, taken from heptad repeat 2 (HR2) of SARS-CoV-2 spike.

Parent: Ab-14, a human scFv built as VH, a 15-residue (Gly4Ser)3 linker, VL. Only the CDRs of the light chain vary.
VH: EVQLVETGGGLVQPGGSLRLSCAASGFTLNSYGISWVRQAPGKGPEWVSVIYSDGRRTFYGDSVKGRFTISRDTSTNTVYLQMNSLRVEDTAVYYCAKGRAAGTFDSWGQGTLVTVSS
VL: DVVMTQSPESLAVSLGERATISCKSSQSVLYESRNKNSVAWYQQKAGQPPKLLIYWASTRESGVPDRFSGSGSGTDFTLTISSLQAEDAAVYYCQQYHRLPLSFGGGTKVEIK

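Phage display of a naive human antibody library on the peptide gave the parent. The library (AAYL50) carries one to three amino acid substitutions per variant, with no insertions or deletions. In AlphaSeq, yeast of one mating type display the scFv and yeast of the other type display the target. Mating (16 h, 30 °C) was followed by selection of diploids and sequencing of their barcodes. A regression on co-assayed BCL2-family reference pairs converts the normalised counts of each replicate to an apparent Kd. Each pool was mated in three replicate cultures.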

Substitutions are numbered in sequence along the VL above, starting at 1 (not Kabat).
This list gathers variants with a substitution at E61 (VL, numbered from residue 1).
Affinities are written as log10 Kd with Kd in nM; a lower number is a better binder.
The mean shown is taken over the replicates in which the pair was detected.
"not detected" marks a missing value. The strain was present, yet no cells mated with the target were sequenced in any replicate, which points to weak or no binding.
For reference, the parent read 0.65 as the reference entry and 1.68 as a member of this library.
Empty control strains, which show no peptide, gave a signal in 18% of pairings with library AAYL50; the median was 4.19 and 95% of these signals were weaker than 2.99. No background was subtracted.

| changes | log10 Kd (nM), mean | replicates with signal |
|---|---|---|
| S25K A40E E61P | not detected | 0 of 3 |
| W56G E61N | 0.32 | 3 of 3 |
| W56F E61G H98S | 1.70 | 3 of 3 |
| K36F W56D E61I | -0.37 | 3 of 3 |
| N35W E61V L102M | 2.28 | 3 of 3 |
| K36L A57N E61T | 3.83 | 3 of 3 |
| L30M E61Q Q95K | 1.21 | 3 of 3 |
| E61M L100N | 3.61 | 2 of 3 |
| S33Q S58P E61C | not detected | 0 of 3 |
| S38G A40E E61Q | 5.22 | 2 of 3 |
| W56L E61M | 0.86 | 3 of 3 |
| K24C E61Y S62H | 2.08 | 3 of 3 |
| R34I T59Q E61N | 0.57 | 3 of 3 |
| K36F S38F E61H | not detected | 0 of 3 |
| E32C E61M | 2.27 | 3 of 3 |
| S58L E61G Y97K | 2.81 | 1 of 3 |
| E61P H98G R99A | 2.38 | 3 of 3 |
| E32D E61Q L102D | 1.23 | 3 of 3 |
| S26H E61N Y97K | 4.18 | 1 of 3 |
| E61F H98V P101Q | 1.37 | 3 of 3 |
| S26E S38V E61Y | 4.12 | 1 of 3 |
| Y31W E61T L102V | 3.45 | 3 of 3 |
| E61P S62G | 3.08 | 3 of 3 |
| E32F E61R H98Y | not detected | 0 of 3 |
| E61V Q95S Q96I | not detected | 0 of 3 |
| E61V H98C P101K | 2.24 | 3 of 3 |
| R60Y E61V | not detected | 0 of 3 |
| Y31P K36C E61T | not detected | 0 of 3 |
| Q27C S58V E61I | 3.97 | 3 of 3 |
| E32D E61S Q95P | 1.68 | 3 of 3 |
| A40P E61C Y97S | 4.29 | 1 of 3 |
| K24F Y31N E61H | 1.28 | 3 of 3 |
| K36V E61V H98M | 0.35 | 3 of 3 |
| Q27I V39D E61K | 3.44 | 2 of 3 |
| Y31F E61P Y97E | 1.17 | 3 of 3 |
| K24D S58W E61Q | 3.18 | 1 of 3 |
| T59V E61P S62R | 2.56 | 3 of 3 |
| A57T E61P L100P | 2.09 | 3 of 3 |
| L30C E61D R99Q | 1.07 | 3 of 3 |
| R60E E61Q H98N | not detected | 0 of 3 |
| E61I | 1.25 | 3 of 3 |
| E61I H98Q | 0.93 | 3 of 3 |
| L30V V39Q E61Y | not detected | 0 of 3 |
| S58Y E61A | 1.73 | 3 of 3 |
| E32P V39Y E61S | 3.24 | 3 of 3 |
| E61G Y97P S103Q | not detected | 0 of 3 |
| V29K T59Q E61R | 1.54 | 3 of 3 |
| T59C E61C S62Q | 1.09 | 3 of 3 |
| S33D V39I E61S | 0.59 | 3 of 3 |
| N35D K36P E61H | 1.31 | 3 of 3 |
| S25F E61S P101Y | not detected | 0 of 3 |
| K24E T59Q E61P | not detected | 0 of 3 |
| K24N T59M E61W | 0.73 | 3 of 3 |
| K24R V29D E61I | 0.91 | 3 of 3 |
| E32H E61C S103A | 1.66 | 3 of 3 |
| S25T E61N | 0.76 | 3 of 3 |
| S25A S28T E61K | 3.10 | 2 of 3 |
| S26M E61I | 1.61 | 3 of 3 |
| S58K E61D P101D | not detected | 0 of 3 |
| Y31K E61N S62W | 3.38 | 2 of 3 |
| S25T E61N Q95G | 1.67 | 2 of 3 |
| K24H E32R E61D | 2.23 | 3 of 3 |
| E61F S62M Q95Y | 1.29 | 3 of 3 |

The last 9 entries again:

| changes | log10 Kd (nM), mean | replicates with signal |
|---|---|---|
| E32H E61C S103A | 1.66 | 3 of 3 |
| S25T E61N | 0.76 | 3 of 3 |
| S25A S28T E61K | 3.10 | 2 of 3 |
| S26M E61I | 1.61 | 3 of 3 |
| S58K E61D P101D | not detected | 0 of 3 |
| Y31K E61N S62W | 3.38 | 2 of 3 |
| S25T E61N Q95G | 1.67 | 2 of 3 |
| K24H E32R E61D | 2.23 | 3 of 3 |
| E61F S62M Q95Y | 1.29 | 3 of 3 |